tested on: maximal electroshock seizures (hind limb tonic extension) in male SA rats; test: Anticonvulsant activity, maximal electroshock (MES) model; assay type: in vivo; conditions: rat, ip; ">5" = HTE inhibited in fewer than 50% of animals at 5 mg/kg screen; ">>" (written >) = no activity, "<" = maximal activity at stated dose

**Q.** `C[C@H]1O[C@@H](n2cc(-c3ccccc3)c3c(Nc4ccc(NC(=O)C(F)(F)F)cc4)ncnc32)[C@H](O)[C@@H]1O` [compound 129] was tested. Which ED50 did it give?
**A.** 5 mg/kg

**Q.** For `CCOCc1ccc(Nc2ncnc3c2c(-c2ccccc2)cn3[C@@H]2O[C@H](C)[C@@H](O)[C@H]2O)cc1` [compound 125], which ED50 is on record?
**A.** > 5 mg/kg

**Q.** With `C[C@H]1O[C@@H](n2cc(-c3ccccc3)c3c(Nc4ccc(I)cc4)ncnc32)[C@H](O)[C@@H]1O` [compound 128] as the compound, how does the ED50 read?
**A.** 5 mg/kg

**Q.** How did the ED50 turn out when `C[C@H]1O[C@@H](n2cc(-c3cccc(N)c3)c3c(Nc4ccc(F)cc4)ncnc32)[C@H](O)[C@@H]1O` [compound 131] was run?
**A.** > 5 mg/kg

**Q.** How did the ED50 turn out when `C[C@H]1O[C@@H](n2cc(-c3ccc(C#N)cc3)c3c(Nc4ccc(F)cc4)ncnc32)[C@H](O)[C@@H]1O` [compound 132] was run?
**A.** > 5 mg/kg

From patent US5763597A, “Orally active adenosine kinase inhibitors” (priority 1996, dated 1998)
